EC50 and IC50 data for 1 molecule are collected here from patent publication US20220106301A1, “ACETAMIDO-PHENYLBENZAMIDE DERIVATIVES AND METHODS OF USING THE SAME” (Athenex, Inc., priority 2020, published 2022).

By UniProt entry, the sequences of proteins in these tests, tags left out.
UniProt P08183, whole entry: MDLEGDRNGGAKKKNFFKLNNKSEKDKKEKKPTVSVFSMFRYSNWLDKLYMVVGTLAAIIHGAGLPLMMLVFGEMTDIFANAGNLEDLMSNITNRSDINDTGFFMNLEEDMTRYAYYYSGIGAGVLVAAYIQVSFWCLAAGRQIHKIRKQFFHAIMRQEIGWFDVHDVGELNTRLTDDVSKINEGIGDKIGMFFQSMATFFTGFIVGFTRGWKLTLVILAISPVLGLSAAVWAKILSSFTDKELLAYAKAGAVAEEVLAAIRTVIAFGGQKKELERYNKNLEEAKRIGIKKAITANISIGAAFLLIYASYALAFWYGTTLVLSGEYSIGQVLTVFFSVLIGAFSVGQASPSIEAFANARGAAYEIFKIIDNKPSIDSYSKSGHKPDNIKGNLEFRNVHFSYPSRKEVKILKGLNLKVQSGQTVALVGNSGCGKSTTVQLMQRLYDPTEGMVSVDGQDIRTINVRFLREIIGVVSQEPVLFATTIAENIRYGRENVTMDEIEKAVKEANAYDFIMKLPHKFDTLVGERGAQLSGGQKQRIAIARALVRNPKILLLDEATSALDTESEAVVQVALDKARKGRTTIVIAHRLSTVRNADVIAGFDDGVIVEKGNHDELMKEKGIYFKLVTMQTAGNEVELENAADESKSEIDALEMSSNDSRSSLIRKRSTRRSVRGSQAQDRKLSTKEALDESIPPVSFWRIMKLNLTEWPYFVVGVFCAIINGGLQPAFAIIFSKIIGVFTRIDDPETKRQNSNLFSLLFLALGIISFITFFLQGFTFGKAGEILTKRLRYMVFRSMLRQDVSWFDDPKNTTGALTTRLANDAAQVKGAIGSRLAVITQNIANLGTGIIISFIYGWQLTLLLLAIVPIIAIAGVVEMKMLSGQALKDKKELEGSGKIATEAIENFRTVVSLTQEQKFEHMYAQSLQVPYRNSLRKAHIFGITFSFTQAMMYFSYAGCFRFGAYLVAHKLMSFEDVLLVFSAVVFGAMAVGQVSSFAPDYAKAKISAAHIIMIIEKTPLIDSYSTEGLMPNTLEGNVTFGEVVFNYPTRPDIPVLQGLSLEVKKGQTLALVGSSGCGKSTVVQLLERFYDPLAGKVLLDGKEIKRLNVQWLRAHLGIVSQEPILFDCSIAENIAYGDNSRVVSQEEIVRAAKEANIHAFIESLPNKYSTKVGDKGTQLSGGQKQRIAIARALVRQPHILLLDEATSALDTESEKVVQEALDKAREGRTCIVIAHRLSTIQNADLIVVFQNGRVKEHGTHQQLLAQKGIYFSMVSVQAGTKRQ
UniProt P08684, whole entry: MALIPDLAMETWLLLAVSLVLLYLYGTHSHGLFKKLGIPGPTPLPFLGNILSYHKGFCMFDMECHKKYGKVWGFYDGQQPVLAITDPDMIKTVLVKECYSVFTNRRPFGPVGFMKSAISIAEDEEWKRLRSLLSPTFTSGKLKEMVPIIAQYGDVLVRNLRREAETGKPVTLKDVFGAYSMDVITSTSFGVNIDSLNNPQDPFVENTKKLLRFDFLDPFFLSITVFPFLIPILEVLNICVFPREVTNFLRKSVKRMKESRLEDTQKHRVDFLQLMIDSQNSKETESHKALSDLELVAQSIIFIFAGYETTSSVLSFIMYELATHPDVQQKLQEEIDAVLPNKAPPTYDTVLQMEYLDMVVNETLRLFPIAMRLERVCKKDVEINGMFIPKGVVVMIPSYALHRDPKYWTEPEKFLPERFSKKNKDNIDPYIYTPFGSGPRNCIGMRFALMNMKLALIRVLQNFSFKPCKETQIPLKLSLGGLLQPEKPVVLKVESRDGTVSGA

By EC50 is commonly meant the concentration needed to bring the measured effect to its halfway point. Read a low EC50 as a more potent agent. What is called IC50 is the concentration that inhibits the measured activity by half. Higher therefore signals weaker potency in that assay.

In one data set the target is P-glycoprotein (Homo sapiens, UniProt P08183).
The target of the next data set is CYP3A4 (Homo sapiens, UniProt P08684).

`COc1cc(NC(=O)c2cc(=O)c3ccccc3o2)c(C(=O)Nc2ccc(CC[N+]([O-])(Cc3ccc4c(cnn4C)c3)Cc3ccc[n+]([O-])c3)cc2)cc1OC` (centres unmarked) returned an EC50 on P-glycoprotein below 0.1 µM. The half-inhibitory concentration (IC50) at CYP3A4 is above 1 µM.
